Reference: US20140058108A1 (SINOXA PHARMA UG, priority 2010, published 2014)

Protein sequences, listed by entry. Tags and fused reporters are not part of them.
UniProt P50129, whole entry: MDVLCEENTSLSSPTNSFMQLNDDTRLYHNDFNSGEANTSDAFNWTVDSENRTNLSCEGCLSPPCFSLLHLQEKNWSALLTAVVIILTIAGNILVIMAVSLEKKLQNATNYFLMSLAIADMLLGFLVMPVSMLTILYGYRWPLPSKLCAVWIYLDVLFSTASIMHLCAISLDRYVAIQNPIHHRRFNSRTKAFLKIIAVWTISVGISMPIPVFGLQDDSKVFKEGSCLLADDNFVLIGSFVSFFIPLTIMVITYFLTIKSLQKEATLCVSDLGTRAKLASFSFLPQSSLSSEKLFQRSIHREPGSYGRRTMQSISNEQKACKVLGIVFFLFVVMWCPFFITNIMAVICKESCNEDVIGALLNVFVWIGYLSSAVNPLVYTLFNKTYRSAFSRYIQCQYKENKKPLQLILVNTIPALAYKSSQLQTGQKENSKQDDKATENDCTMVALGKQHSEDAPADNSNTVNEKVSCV

Biological target: T1, 5-HT2A receptors of coronary arteries in pigs (Sus scrofa, UniProt P50129)
T1 construct: 5-HT2A-mediated contraction of the coronary arteries in pigs; from tissue; host or cells: isolated pig coronary artery
Test: Inhibition of 5-HT2A-mediated, 5-HT-induced contraction of coronary arteries in pigs
Type: cell-based
Conditions: footnote a: pD′2 (non-competitive antagonism)

CCN(CC)C(=O)N[C@H]1C[C@@H]2c3cccc4[nH]cc(c34)C[C@H]2N(C)C1 [Terguride, trans-dihydrolisuride]
5-HT2A pD′2 value: 9.43 ± 0.08^a
